# Laboratory results: Sander's compilation of Henry's law constants
# Key:
# [1] = Henry solubility constant Hcp at 298.15 K (mol/(m3 Pa))
# [2] = Henry solubility constant Hcp at 293 K (mol/(m3 Pa)); conditions: reference: Kames and Schurath (1992)
# [3] = reference: Kames and Schurath (1992)
# [4] = reference: Shepson et al. (1996)
smiles,measurement,setting,value
CCCC(C)O[N+](=O)[O-] (configuration not stated) [2-pentyl nitrate],Henry solubility constant Hcp,[1]; [3],0.0036
CC(O)C(C)O[N+](=O)[O-] (configuration not stated) [2-nitrooxy-3-butanol],Henry solubility constant Hcp,[1]; [4],100
CC(C)CO[N+](=O)[O-] [isobutyl nitrate],Henry solubility constant Hcp,[1]; [3],0.007
CCCCOCCCC [dibutyl ether],Henry solubility constant Hcp,[1]; reference: Hwang et al. (2010),0.0072
same,Henry solubility constant Hcp,[1]; reference: Ioffe et al. (1984),0.0021
CCCCCO[N+](=O)[O-] [1-pentyl nitrate],Henry solubility constant Hcp at 293 K,[2],0.012
CCCCO[N+](=O)[O-] [1-butyl nitrate],Henry solubility constant Hcp,[1]; [3],0.01
CCC(CO)O[N+](=O)[O-] (configuration not stated) [2-nitrooxy-1-butanol],Henry solubility constant Hcp,[1]; [4],59
CCC(O)CO[N+](=O)[O-] (configuration not stated) [1-nitrooxy-2-butanol],Henry solubility constant Hcp,[1]; [4],57
CCl [chloromethane],Henry solubility constant Hcp,[1]; reference: Boggs and Buck (1958),0.00099
same,Henry solubility constant Hcp,[1]; reference: Chen et al. (2012),0.00091
same,Henry solubility constant Hcp,[1]; reference: Elliott and Rowland (1993),0.0011
same,Henry solubility constant Hcp,[1]; reference: Glew and Moelwyn-Hughes (1953),0.001
same,Henry solubility constant Hcp,[1]; reference: Gossett (1987),0.0012
same,Henry solubility constant Hcp,[1]; reference: Reichl (1995),0.00085
same,Henry solubility constant Hcp,[1]; reference: Swain and Thornton (1962),0.0011
CCC(C)O[N+](=O)[O-] (configuration not stated) [2-butyl nitrate],Henry solubility constant Hcp,[1]; [3],0.0064
